Measured values as given in paper PMC12279946 (Nature Communications, 2024).

Molecular target: T1, mono-ubiquitin (Ub^1) (UniProt P0CG48 1-76)
T1 construct: mono-ubiquitin, the 76-residue mature ubiquitin; plasmid provided by Brenda Schulman; His6 tag removed with GST-tagged 3C protease; source: E. coli Rosetta, purified (Ni-NTA, 3C cleavage, reverse Ni-NTA, SEC); not shown: His6, N-terminal, cleaved
Assay: NMR titration; 2D 1H,15N-HSQC of 100 µM 15N-labelled SPRTN construct alone or with 500 µM Ub^1 (5x molar excess), no DNA; 20 mM HEPES/KOH pH 7.2, 150 mM KCl, 10% D2O, 308 K, 600 MHz
Details: both partners purified

- binding result: binds
B1: SprT-BR (SPRTN aa28-245), minimal active SPRTN variant lacking MIU and UBZ (domain or fragment, human, UniProt Q9H040 28-245, looked up)
chain: SLSLVDASWELVDPTPDLQALFVQFNDQFFWGQLEAVEVKWSVRMTLCAGICSYEGKGGMCSIRLSEPLLKLRPRKDLVETLLHEMIHAYLFVTNNDKDREGHGPEFCKHMHRINSLTGANITVYHTFHDEVDEYRRHWWRCNGPCQHRPPYYGYVKRATNREPSAHDYWWAEHQKTCGGTYIKIKEPENYSKKGKGKAKLGKEPVLAAENKDKPNRG
notes: Uniformly 15N-labelled in the NMR experiments, unlabelled in the cleavage assays; Tag cut off with Strep-tagged TEV protease; also called 15N-SprT-BR; source: E. coli BL21 (DE3), purified (Strep-Tactin, heparin, TEV cleavage, SEC); expressed in 15N-containing media for NMR
